Measured values as given in patent US12465607B2, “ALK inhibitors for treatment of ALK-negative cancer and plasma cell-mediated diseases” (UNIVERSITETET I OSLO, priority 2019, dated 2025).

Protein sequences, listed by entry. Tags and fused reporters are not part of them. Residues count along the entry.
UniProt P29376, 17-864: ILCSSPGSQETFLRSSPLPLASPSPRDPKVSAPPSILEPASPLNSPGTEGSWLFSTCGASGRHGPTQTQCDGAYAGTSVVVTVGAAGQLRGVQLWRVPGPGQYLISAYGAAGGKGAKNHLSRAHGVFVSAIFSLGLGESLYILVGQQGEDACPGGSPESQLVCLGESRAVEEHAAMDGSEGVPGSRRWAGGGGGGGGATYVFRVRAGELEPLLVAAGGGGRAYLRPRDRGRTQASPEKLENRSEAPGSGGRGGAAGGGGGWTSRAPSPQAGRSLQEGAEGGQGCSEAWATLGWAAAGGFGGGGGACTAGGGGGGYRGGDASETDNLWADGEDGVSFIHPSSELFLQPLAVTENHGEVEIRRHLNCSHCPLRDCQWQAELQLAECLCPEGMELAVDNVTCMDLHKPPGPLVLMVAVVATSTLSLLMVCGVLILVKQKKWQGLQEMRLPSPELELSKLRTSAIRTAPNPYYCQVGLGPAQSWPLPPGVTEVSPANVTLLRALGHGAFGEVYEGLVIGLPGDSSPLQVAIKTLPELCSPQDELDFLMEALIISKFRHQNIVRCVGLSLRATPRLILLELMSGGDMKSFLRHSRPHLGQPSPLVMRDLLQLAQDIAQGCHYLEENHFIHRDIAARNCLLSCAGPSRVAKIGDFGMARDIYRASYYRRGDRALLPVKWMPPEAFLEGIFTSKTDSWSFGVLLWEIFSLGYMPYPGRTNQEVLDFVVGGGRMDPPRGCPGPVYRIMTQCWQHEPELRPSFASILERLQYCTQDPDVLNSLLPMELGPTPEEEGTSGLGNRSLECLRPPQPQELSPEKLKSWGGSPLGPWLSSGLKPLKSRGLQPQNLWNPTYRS

Molecular target: T1, LTK (Homo sapiens, UniProt P29376)
T1 construct: expressed in transfected cells; host or cells: HeLa cells
Experiment: LTK inhibition: immunoblot of phosphorylated LTK in cells expressing LTK
Assay type: cell-based
Details: FIG. 5A: HeLa cells expressing flag-tagged LTK, 1 μM, 30 minutes
Method: Cells were washed twice with PBS and collected in lysis buffer (50 mM Tris-HCl, pH7.4; 1 mM EDTA, 100 mM NaCl, 0.1% SDS and 1% NP-40) supplemented with proteinase and phosphatase inhibitor (Pierce Protease and Phosphatase Inhibitor Mini Tablets, EDTA-free). Lysates were incubated on ice for 10 minutes followed by clearing centrifugation at 20,000×g at 4° C. for 10 min. Supernatants were transferred into fresh tubes and reducing loading buffer was added. Lysates were subjected to SDS-PAGE and transferred onto a nitrocellulose membrane using semi-dry transfer. The membrane was blocked (in ROTI buffer (Roth) or 5% milk in PBS with 0.1% tween) and probed with the appropriate primary antibodies. Subsequently membranes were incubated with horseradish peroxidase-conjugated secondary antibody. Immunoblots were developed using a chemiluminescence reagent (ECL clarity, BioRad) and imaged using ChemiDoc (BioRad).

## C[C@H]1Oc2cc(cnc2N)-c2c(nn(C)c2C#N)CN(C)C(=O)c2ccc(F)cc21 [lorlatinib]
  inhibition of LTK: not to have activity in inhibition of LTK
